We go through two molecules from PubChem BioAssay AID485275 (NMMLSC, 2010).

The entries are a selection whose mix differs from that of the whole data set. Active and inactive are the calls of the source.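 Rule for the calls: active = plate passing quality check with inhibition over a set limit, or well fluorescence over plate mean plus 4 SD; inactive = the rest.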

This experiment can be described thus: antifungal drug efflux pump blockers, triplex strains – S. cerevisiae, Nile Red, multiplex, primary screen (AID 485275).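 Note: Nile Red retained in pooled yeast measured as flow cytometry median fluorescence; 0% = buffer negative control and 100% = Enniatin B positive control; higher means more Nile Red kept so more efflux inhibition.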 To be noted: S. cerevisiae Candida pump triplex, at 10 µM, hits give high values.
The term inhibition denotes the share of the control response that was lost under treatment. Turning to `CCC(=O)N(c1ccccc1)C1(COC)CCN(CCc2cccs2)CC1`, the inhibition was inactive: 0.48%.
In the case of `CCC(=O)N(c1ccccc1)C1(COC)CCN(CCn2nnn(CC)c2=O)CC1` it was inactive: 0.09%.
